US5994378A, “Thiazolylbenzofuran derivatives and pharmaceutical compositions containing them” (Fujisawa Pharmaceutical Co., Ltd., priority 1996, dated 1999)
pIC50: −log10 of the molar value. Read-outs that look alike come from different tables or passages of the source.

Biological target: T1, Leukotriene D4 receptor (Homo sapiens, UniProt Q9Y271)
T1 sequence (Q9Y271 1-337): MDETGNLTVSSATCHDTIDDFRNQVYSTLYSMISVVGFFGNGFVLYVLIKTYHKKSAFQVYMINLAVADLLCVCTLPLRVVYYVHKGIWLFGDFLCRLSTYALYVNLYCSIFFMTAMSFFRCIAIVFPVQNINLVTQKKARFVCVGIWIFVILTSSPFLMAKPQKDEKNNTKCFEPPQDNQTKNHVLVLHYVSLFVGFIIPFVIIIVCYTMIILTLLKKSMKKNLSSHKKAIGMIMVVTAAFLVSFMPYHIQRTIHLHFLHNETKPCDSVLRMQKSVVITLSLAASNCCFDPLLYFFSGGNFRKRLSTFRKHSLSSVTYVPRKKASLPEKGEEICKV
Assay: biochemical
Assay type: binding

[1] = ^3 H-Leukotriene D4 (0.3 nM), human histiocytic lymphoma U937 membranes (100 μg protein/tube), 25° C., 30 minutes

Compound	pIC50	pIC50 [1]
COc1cccc(COc2ccc3oc(-c4nc(C(C)(C)C)cs4)cc3c2)c1O[C@@H](C)C(=O)O	> 8.30	–
Cc1ccc2c(-c3nnn[nH]3)cn(Cc3ccc4oc(-c5nc(C(C)(C)C)cs5)cc4c3)c2c1 [Example 21, 5-{1-{[2-(4-tert-butylthiazol-2-yl)benzofuran-5-yl]methyl}-6-methylindol-3-yl}-1H-tetrazole]	–	> 8.30
Cc1cccc2c(-c3nnn[nH]3)cn(Cc3ccc4oc(-c5nc(C(C)(C)C)cs5)cc4c3)c12 [Example 22-2]	–	> 8.30
CC(C)(C)c1csc(-c2cc3cc(Cn4cc(-c5nnn[nH]5)c5cc(OCc6nnn[nH]6)ccc54)ccc3o2)n1 [Example 22-16]	–	> 8.30
COc1ccc2c(c1)c(-c1nnn[nH]1)nn2Cc1ccc2oc(-c3nc(C(C)(C)C)cs3)cc2c1 [Example 22-23, 5-{1-{[2-(4-tert-butylthiazol-2-yl)benzofuran-5-yl]methyl}-5-methoxy-1H-indazol-3-yl}-1H-tetrazole]	–	> 8.30
CC(C)(C)c1csc(-c2cc3cc(Cn4nc(-c5nnn[nH]5)c5cc(O)ccc54)ccc3o2)n1 [Example 22-24]	–	> 8.30
Cc1ccc2c(c1)c(-c1nnn[nH]1)nn2Cc1ccc2oc(-c3nc(C(C)(C)C)cs3)cc2c1 [Example 22-27]	–	> 8.30

The next lines start with the values.

pIC50	pIC50 [1]	Compound
–	> 8.30	CC(C)(C)c1csc(-c2cc3cc(Cn4cc(-c5nnn[nH]5)c5cc(OCC(=O)O)ccc54)ccc3o2)n1 [Example 28-3, 5-{1-{[2-(4-tert-butylthiazol-2-yl)benzofuran-5-yl]methyl}-5-(carboxymethoxy)indol-3-yl}-1H-tetrazole]
–	> 8.30	CC(C)(C)c1csc(-c2cc3cc(Cn4cc(-c5nnn[nH]5)c5cc(OCC(=O)N6CCCC6)ccc54)ccc3o2)n1 [Example 34-3]
–	> 8.30	CC(C)(C)c1csc(-c2cc3cc(Cn4cc(-c5nnn[nH]5)c5cc(OCC(=O)N6CCOCC6)ccc54)ccc3o2)n1 [Example 34-5]
–	> 8.30	CC(C)(C)c1csc(-c2cc3cc(Cn4cc(-c5nnn[nH]5)c5cc(OCC(=O)N6CCN(C7CCCCC7)CC6)ccc54)ccc3o2)n1 [Example 34-8]
–	> 8.30	CC(C)(C)c1csc(-c2cc3cc(Cn4nc(-c5nnn[nH]5)c5cc(OCC(N)=O)ccc54)ccc3o2)n1 [Example 34-10]
–	> 8.30	CNC(=O)COc1ccc2c(c1)c(-c1nnn[nH]1)nn2Cc1ccc2oc(-c3nc(C(C)(C)C)cs3)cc2c1 [Example 34-11]
